The results in this text go back to paper PMC11109483 (Life Science Alliance, 2024).

The target of the assay is T1, mono-Ub (human, UniProt P0CG48 1-76, Maleimide-PEG2-Biotin on the cysteine of the C-terminal linker).
T1 construct: ubiquitin (hUb), human; construct Ub-cys-6H in pETM60; Bait of the pulldowns; The same name is used for the SPR analyte; also called Ub-cys-6H; 6xHis-cys-Ub; source: E. coli BL21 Rosetta, purified (TALON, SEC); biotin conjugated by maleimide-cysteine reaction
Kind of assay: SPR; Biacore T200, 25°C; biotinylated HIP1(22-309) immobilised on Sensor Chip NA (900 RU); Ub chains as analytes 60 nM to 250 uM, multicycle; 50 mM Hepes pH 7.5, 300 mM NaCl, 0.5 mM TCEP, 0.05% Tween-20, 1% BSA; steady-state affinity model. The settings on record: both partners purified. (In SPR one partner is held on a chip, and binding of the other changes the refractive index at the surface.)

B1: biotinylated HIP1 (22-309) (domain or fragment, UniProt O00291 22-309, looked up)
chain: RGVGAGLEAAERESFERTQTVSINKAINTQEVAVKEKHARTCILGTHHEKGAQTFWSVVNRLPLSSNAVLCWKFCHVFHKLLRDGHPNVLKDSLRYRNELSDMSRMWGHLSEGYGQLCSIYLKLLRTKMEYHTKNPRFPGNLQMSDRQLDEAGESDVNNFFQLTVEMFDYLECELNLFQTVFNSLDMSRSVSVTAAGQCRLAPLIQVILDCSHLYDYTVKLLFKLHSCLPADTLQGHRDRFMEQFTKLKDLFYRSSNLQYFKRLIQIPQLPENPPNFLRASALSEHIS
modifications: biotin on the Avi-tag (BirA)
notes: Vector pET-15b-His10-TEV-Avi-tag; source: E. coli BL21(DE3), purified (IMAC, TEV digestion, reverse IMAC, SEC), biotinylated in vitro with BirA
A word on the Kd: it is a measure of binding affinity in units of concentration. Low readings indicate higher affinity, high ones lower affinity. Molecule B1 gave a Kd of 197 µM.
